Test results published in patent US9388112B2, “Bisphenol derivatives and their use as androgen receptor activity modulators” (The University of British Columbia, priority 2010, dated 2016).

Sequences of proteins named here, by UniProt entry; tags and fusion partners are left off.
UniProt P10275, whole entry T878A: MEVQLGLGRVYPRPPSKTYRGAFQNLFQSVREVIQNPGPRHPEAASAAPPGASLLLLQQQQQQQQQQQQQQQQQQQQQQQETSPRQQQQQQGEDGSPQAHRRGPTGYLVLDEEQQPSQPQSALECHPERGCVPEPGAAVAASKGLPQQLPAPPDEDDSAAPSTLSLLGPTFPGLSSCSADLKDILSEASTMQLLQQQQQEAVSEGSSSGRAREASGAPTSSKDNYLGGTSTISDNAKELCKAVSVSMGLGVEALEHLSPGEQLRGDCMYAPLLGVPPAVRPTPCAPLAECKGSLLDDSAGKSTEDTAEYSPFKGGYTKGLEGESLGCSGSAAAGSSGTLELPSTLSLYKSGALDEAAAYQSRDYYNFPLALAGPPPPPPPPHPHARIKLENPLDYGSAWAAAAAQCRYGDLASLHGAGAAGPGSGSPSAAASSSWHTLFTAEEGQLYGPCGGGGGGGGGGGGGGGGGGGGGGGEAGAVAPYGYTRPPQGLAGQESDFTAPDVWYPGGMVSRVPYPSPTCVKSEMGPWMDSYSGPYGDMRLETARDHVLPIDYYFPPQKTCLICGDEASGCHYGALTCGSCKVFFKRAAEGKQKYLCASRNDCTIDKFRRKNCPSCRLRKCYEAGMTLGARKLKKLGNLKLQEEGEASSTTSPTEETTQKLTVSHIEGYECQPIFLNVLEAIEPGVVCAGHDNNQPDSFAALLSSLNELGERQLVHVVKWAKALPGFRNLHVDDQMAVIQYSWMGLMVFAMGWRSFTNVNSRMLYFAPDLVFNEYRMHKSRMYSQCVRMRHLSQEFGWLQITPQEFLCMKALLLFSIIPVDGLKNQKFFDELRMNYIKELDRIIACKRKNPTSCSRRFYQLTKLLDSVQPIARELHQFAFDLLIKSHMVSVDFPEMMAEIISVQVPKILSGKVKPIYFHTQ

Molecular target: T1, androgen receptor (AR) (Homo sapiens, UniProt P10275, T878A)
T1 construct: LNCaP cells express endogenous AR; endogenous in cells; host or cells: LNCaP cells
Assay: LNCaP PSA (6.1 kb)-luciferase assay (R1881-induced)
Type: cell-based
Settings: LNCaP cells transfected with PSA (6.1 kb)-luciferase, 1 h pre-treatment, R1881 1 nM, 48 h
Text: LNCaP cells were employed initially for all experiments because they are well-differentiated human prostate cancer cells in which ligand-independent activation of the AR by FSK has been characterized (Nazareth et al 1996 J. Biol. Chem. 271, 19900-19907; and Sadar 1999 J. Biol. Chem. 274, 7777-7783). LNCaP cells express endogenous AR and secrete prostate-specific antigen (PSA) (Horoszewicz et al 1983 Cancer Res. 43, 1809-1818). LNCaP cells can be grown either as monolayers in cell culture or as tumors in the well-characterized xenograft model that progresses to androgen independence in castrated hosts (Sato et al 1996 J. Steroid Biochem. Mol. Biol. 58, 139-146; Gleave et al 1991 Cancer Res. 51, 3753-3761; Sato et al 1997 Cancer Res. 57, 1584-1589; and Sadar et al 2002 Mol. Cancer Ther. 1(8), 629-637). […] Small molecules that specifically target the AR-NTD should have no effect on PC3 cells. […] Reporter specificity may be determined using several alternative reporter gene constructs. […]
LNCaP cells were transiently cotransfected with PSA (6.1 kb)-luciferase (0.25 μg/well) in 24-well plates for 24 h prior to pre-treatment with compounds for 1 hour before the addition of synthetic androgen, R1881 (1 nM) to induce PSA production or vehicle. […] After 48 h of incubation with R1881, the cells were harvested, and relative luciferase activity was determined. […]

| SMILES | EX[…] (activity in the described assays) |
| --- | --- |
| CC(C)(c1ccc(O)cc1)c1ccc(OCCOCCOCCO)cc1 [drawing 872] | Active |
| CC(C)(c1ccc(OCCCCl)cc1)c1ccc(OCCOCCOCCO)cc1 | Active |
